These results are taken from US20240293405A1, “(1H-PYRROLO[2,3-B]PYRIDIN-1-YL)PYRIMIDIN-2-YL-AMINO-PHENYL-ACRYLAMIDE INHIBITORS OF EGFR FOR USE IN THE TREATMENT OF BRAIN TUMORS” (Dana-Farber Cancer Institute, Inc., priority 2021, published 2024).

For data set [1] the following is noted: Kim et al., Drug Metab. Dispos. 2019; cited from earlier work.
Data set [2] is described as follows: Brain and plasma exposure after single oral dose. The class given is in vivo, Sprague Dawley rats. The following applies: own data, oral dosing in rats. As for the experimental part: Compound 1 and gefitinib were administered to Sprague Dawley rats in a single oral (PO) dose (30 mg/kg or 50 mg/kg, respectively).
Data set [3] in a line: Brain and plasma exposure after single oral dose. The class given is in vivo, Sprague Dawley rats. The following applies: gefitinib 50 mg/kg PO, 7 hr, individual animal.
For data set [4] the following is noted: 3 mg/kg IV infusion over 5 h, individual animal, Compound 2 as metabolite in Compound 1-dosed rats.

Like-named read-outs stand apart in the source and are kept apart here.

As for `COc1cc2ncnc(Nc3ccc(F)c(Cl)c3)c2cc1OCCCN1CCOCC1` [Gefitinib, reference compound], the “Brain Penetration (% of B/P ratio in preclinical model)” value was 27% in data set [1] and 22% in data set [2]. In addition, the “Brain/Plasma (ratios)” value in data set [3] worked out at 0.546; in data set [4] (5 h) it was 0.528. Besides, in data set [4] (3 h), the “Plasma Concentration” value stood at 225 ng/mL.
